Earlier results in patent US20120295965A1, “FUSED THIOPHENES AS DUAL INHIBITORS OF EGFR/VEGFR AND THEIR USE IN THE TREATMENT OF CANCER” (priority 2009, published 2012).

Target: EGFR (Homo sapiens, UniProt P00533)
Conditions: known inhibitors; cited from earlier work

COc1cc2ncnc(Nc3cccc(Cl)c3)c2cc1OC [AG1478]
strength as EGFR inhibitor: potent EGFR inhibitor
